For one molecule, EC50 results are on record in PMC5799184, “Gs- versus Golf-dependent functional selectivity mediated by the dopamine D1 receptor” (Nature Communications, 2018).

By UniProt entry, the sequences of proteins in these tests, tags left out. Where a name states a change or a piece, a line headed by the entry shows the natural chain unless it says otherwise. Residues count along the entry.
UniProt P14416, 1-414 isoform P14416-2: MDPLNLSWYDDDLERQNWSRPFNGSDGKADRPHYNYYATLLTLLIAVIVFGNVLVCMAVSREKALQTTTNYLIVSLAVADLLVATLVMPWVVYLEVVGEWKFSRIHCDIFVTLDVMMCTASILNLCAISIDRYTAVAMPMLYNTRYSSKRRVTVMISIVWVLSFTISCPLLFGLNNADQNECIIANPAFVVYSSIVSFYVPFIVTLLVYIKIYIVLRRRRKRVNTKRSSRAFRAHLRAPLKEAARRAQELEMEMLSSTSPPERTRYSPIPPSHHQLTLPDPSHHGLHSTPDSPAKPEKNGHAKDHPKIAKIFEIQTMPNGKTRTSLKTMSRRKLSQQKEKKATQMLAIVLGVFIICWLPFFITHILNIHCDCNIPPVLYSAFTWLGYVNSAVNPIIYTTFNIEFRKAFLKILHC

This assay deals with T1, D2R (D2SR), Go activation (Homo sapiens, UniProt P14416).
T1 construct: gene DRD2

Regarding `Oc1cc2c(c(Cl)c1O)CCNCC2c1ccccc1` (stereo not shown) [SKF81297], the EC50 entry was “DHX and SKF81297 were about one order of magnitude less potent”.
